In patent publication US20120134993A1:

Columns and labels:
VEGF-A peptide 39 = experiment: peptide array (JPT RepliTope), scFv on 13-mer VEGF-A peptides
VEGF-A peptide 24 = experiment: as above
VEGF-A peptide 23 = experiment: as above
VEGF-A peptide 11 = experiment: as above
VEGF-A peptide 9 = experiment: as above
VEGF-A peptide 7 = experiment: as above
VEGF-A peptide 8 = experiment: as above
mouse VEGF-A164 (mouse) = mouse VEGF-A164 (mouse) (UniProt Q00731); experiment: cell-based or functional assay
VEGF-A peptide 78 = experiment: peptide array (JPT RepliTope), scFv on 13-mer VEGF-A peptides
VEGF-A peptide 10 = experiment: as above
VEGF-A peptide 19 = experiment: as above
VEGF-A peptide 20 = experiment: as above
VEGF-A peptide 77 = experiment: as above
VEGF-A peptide 76 = experiment: as above
VEGF-A peptide 60 = experiment: as above
VEGF-A peptide 59 = experiment: as above
VEGF-A peptide 75 = experiment: as above
VEGF-A peptide 18 = experiment: as above
VEGF-A peptide 37 = experiment: as above
human VEGF-A (human) [1] = biological target: human VEGF-A (human) (UniProt P15692); experiment: cell-based or functional assay
human VEGF-A (human) [2] = biological target: human VEGF-A (human) (UniProt P15692); experiment: SPR (Biacore T100), antagonist captured via anti-His6/Myc, VEGF-A analyte, bivalent analyte model (KD1)
human VEGF-A (human) [3] = biological target: human VEGF-A (human) (UniProt P15692); experiment: SPR (Biacore T100), antagonist captured via anti-His6/Myc, VEGF-A analyte, bivalent analyte model (kd1)
human VEGF-A (human) [4] = biological target: human VEGF-A (human) (UniProt P15692); experiment: SPR (Biacore T100), VEGF-A immobilized, 1:1 dissociation fit
human VEGF-A (human) [5] = biological target: human VEGF-A (human) (UniProt P15692); experiment: SPR (Biacore T100), antagonist captured via anti-His6/Myc, VEGF-A analyte, bivalent analyte model
human VEGF-A (human) [6] = biological target: human VEGF-A (human) (UniProt P15692); experiment: SPR (Biacore T100), antagonist captured via anti-His6/Myc, VEGF-A analyte, bivalent analyte model (ka1)

Substance: c870 scFv
- percentage signal intensity of the peptide respect to overall signal intensities (VEGF-A peptide 39): 1%
- percentage signal intensity of the peptide respect to overall signal intensities (VEGF-A peptide 24): 25%
- percentage signal intensity of the peptide respect to overall signal intensities (VEGF-A peptide 23): 32%
- percentage signal intensity of the peptide respect to overall signal intensities (VEGF-A peptide 11): 6%
- percentage signal intensity of the peptide respect to overall signal intensities (VEGF-A peptide 9): 17%
- percentage signal intensity of the peptide respect to overall signal intensities (VEGF-A peptide 7): 4%
- percentage signal intensity of the peptide respect to overall signal intensities (VEGF-A peptide 8): 14%
- IC50, mouse VEGF-A164-stimulated HUVEC proliferation (3H-thymidine) (mouse VEGF-A164 (mouse)): 360 pM

Substance: c1039 scFv
- percentage signal intensity of the peptide respect to overall signal intensities (VEGF-A peptide 39): 3%
- percentage signal intensity of the peptide respect to overall signal intensities (VEGF-A peptide 78): 4%
- percentage signal intensity of the peptide respect to overall signal intensities (VEGF-A peptide 10): 5%
- percentage signal intensity of the peptide respect to overall signal intensities (VEGF-A peptide 24): 7%
- percentage signal intensity of the peptide respect to overall signal intensities (VEGF-A peptide 23): 9%
- percentage signal intensity of the peptide respect to overall signal intensities (VEGF-A peptide 11): 7%
- percentage signal intensity of the peptide respect to overall signal intensities (VEGF-A peptide 19): 5%
- percentage signal intensity of the peptide respect to overall signal intensities (VEGF-A peptide 20): 3%
- percentage signal intensity of the peptide respect to overall signal intensities (VEGF-A peptide 77): 4%
- percentage signal intensity of the peptide respect to overall signal intensities (VEGF-A peptide 9): 7%
- percentage signal intensity of the peptide respect to overall signal intensities (VEGF-A peptide 76): 4%
- percentage signal intensity of the peptide respect to overall signal intensities (VEGF-A peptide 60): 5%
- percentage signal intensity of the peptide respect to overall signal intensities (VEGF-A peptide 59): 13%
- percentage signal intensity of the peptide respect to overall signal intensities (VEGF-A peptide 7): 3%
- percentage signal intensity of the peptide respect to overall signal intensities (VEGF-A peptide 75): 7%
- percentage signal intensity of the peptide respect to overall signal intensities (VEGF-A peptide 18): 3%
- percentage signal intensity of the peptide respect to overall signal intensities (VEGF-A peptide 37): 4%
- percentage signal intensity of the peptide respect to overall signal intensities (VEGF-A peptide 8): 6%
- IC50, VEGF-A165-induced luciferase reporter assay in 293/KDR/KZ136/c22 cells (human VEGF-A (human) [1]): 70 pM
- IC50, human VEGF-A165-stimulated HUVEC proliferation (3H-thymidine) (human VEGF-A (human) [1]): 700 pM

Substance: c1039 scFv (scFv; other documents disagree on this pair)
- Kd (human VEGF-A (human) [2]): 600 pM
- koff (human VEGF-A (human) [3]): 0.0002 s⁻¹
- koff (human VEGF-A (human) [4]): 0.0002 s⁻¹
- Ka (human VEGF-A (human) [5]): 2e+09 M⁻¹
- kon (human VEGF-A (human) [6]): 300000 M⁻¹ s⁻¹
